# Values of other authors as cited in publication PMC8502442 (Pharmacology Research & Perspectives, 2021).
# Settings: rat, oral administration; cited from earlier work
substance,measurement,value
S‐^14C‐ofloxacin,radioactivity recovered from bile,approximately 30%
